# Values of other authors as cited in patent US20160317610A1, “COMPOSITIONS AND METHODS FOR TREATING OVARIAN CANCER INCLUDING PREVENTING THE […]” (University of Southern California, priority 2013, published 2016).
# Key:
# OC xenograft = settings: IP treatment
substance,measurement,setting,value
volociximab: an α5β1-specific mAb,animal survival,OC xenograft,increase animal survival
same,"tumor burden, ascites formation and number of metastatic foci",OC xenograft,"significantly reduce tumor burden, ascites formation and the number of metastatic foci"
same,clinical efficacy,advanced OC,failed to show clinical efficacy
